For 31 compounds, IC50 results are on record in US10442819B2, “Tricyclic compounds as inhibitors of mutant IDH enzymes” (Merck Sharp & Dohme Corp., priority 2014, dated 2019).

By UniProt entry, the sequences of proteins in these tests, tags left out.
UniProt O75874, whole entry R132H: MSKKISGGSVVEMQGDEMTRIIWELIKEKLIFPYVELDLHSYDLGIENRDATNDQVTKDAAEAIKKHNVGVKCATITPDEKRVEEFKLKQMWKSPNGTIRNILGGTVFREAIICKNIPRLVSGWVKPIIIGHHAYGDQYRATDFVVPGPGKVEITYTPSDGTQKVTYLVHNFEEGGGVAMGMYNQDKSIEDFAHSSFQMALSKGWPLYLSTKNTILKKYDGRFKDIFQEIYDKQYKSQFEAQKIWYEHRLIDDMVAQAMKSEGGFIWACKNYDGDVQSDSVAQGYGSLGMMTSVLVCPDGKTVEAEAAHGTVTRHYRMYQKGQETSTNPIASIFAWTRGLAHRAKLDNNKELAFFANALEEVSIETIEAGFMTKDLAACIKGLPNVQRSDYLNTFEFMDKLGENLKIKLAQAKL

The experiment addresses R132H mutant IDH1 enzyme (Homo sapiens (Human), UniProt O75874, R132H). Nature of the experiment: R132H IDH1 Enzymatic Assay. The format is biochemical. The settings on record: R132H mutant IDH1 enzyme 1.5 nM final; luminescence readout; read-out: IC50.

In general, IC50 refers to the midpoint of a concentration-inhibition curve. With `CO/N=C1/CCC(c2ccc3c(c2)N(C(=O)C2CCC(OC(C)C)CC2)Cc2cccnc2N3)C1` (stereo not drawn) [Example 527, E and Z {8-[3-(Methoxyimino)cyclopentyl]-5,11-dihydro-6H-pyrido[2,3-b][1,5]benzodiazepin-6-yl}[trans-4-(propan-2-yloxy)cyclohexyl]methanone], the IC50 amounted to 0.009 µM.
Turning to `COCCN(CCOC)c1ccc2c(c1)N(C(=O)[C@H]1CC[C@@H](OC)CC1)Cc1cccnc1N2` [Example 241, 6-[(cis-4-methoxycyclohexyl)carbonyl]-N,N-bis(2-methoxyethyl)-6,11-dihydro-5H-pyrido[2,3-b][1,5]benzodiazepin-8-amine], the IC50 was 0.165 µM.
Regarding `CO[C@H]1CC[C@H](C(=O)N2Cc3cccnc3Nc3ccc(N4CCOCC4)cc32)CC1` [Example 52, 6-[(Trans-4-methoxycyclohexyl)carbonyl]-8-morpholin-4-yl-6,11-dihydro-5H-pyrido[2,3-b][1,5]benzodiazepine], the IC50 amounted to 0.654 µM.
For the compound `CON=C1CCC(C(=O)N2Cc3cccnc3Nc3ccc(C4=CCOCC4)cc32)CC1` (stereo not shown) [Example 392, 4-{[8-(3,6-dihydro-2H-pyran-4-yl)-5,11-dihydro-6H-pyrido[2,3-b][1,5]benzodiazepin-6-yl]carbonyl}cyclohexanone O-methyloxime], the IC50 came out at 0.026 µM.
For `COC1CCC(C(=O)N2Cc3cccnc3Nc3ccc(N4CC[C@H](OC)C4)cc32)CC1` (stereo partly drawn) [Example 204, 6-[(4-methoxycyclohexyl)carbonyl]-8-[(3S)-3-methoxypyrrolidin-1-yl]-6,11-dihydro-5H-pyrido[2,3-b][1,5]benzodiazepine], the half-inhibitory concentration (IC50) stood at 0.732 µM.
In the case of `CC(C)O[C@H]1CC[C@H](C(=O)N2Cc3cccnc3Nc3ccc(C4CCOC4)cc32)OC1` (single isomer, unassigned) [Example 15], the IC50 amounted to 0.02 µM.
Then `O=C(N1Cc2cccnc2Nc2ccc(N3CCOCC3)cc21)C1(F)CCCCC1` [Example 73, 6-[(1-fluorocyclohexyl)carbon-yl]-8-morpholin-4-yl-6,11-dihydro-5H-pyrido[2,3-b][1,5]benzodiazepine], with 0.927 µM; and `CO[C@H]1CC[C@H](C(=O)N2Cc3cccnc3Nc3ccc(N4CCOC5CCCC54)cc32)CC1` (stereo partly drawn) [Example 231, 8-(hexahydrocyclopenta[b][1,4]oxazin-4(4aH)-yl)-6-[(trans-4-methoxycyclohexyl)carbonyl]-6,11-dihydro-5H-pyrido[2,3-b][1,5]benzodiazepine], with 0.223 µM; and `O=C([C@H]1CC[C@@H](O[C@@H]2CC2(F)F)CC1)N1Cc2cccnc2Nc2ccc(N3CCOCC3)cc21` [Example 103, 6-[(cis-4-{[(1R)-2,2-difluorocyclopropyl]oxy}-cyclohexyl)carbonyl]-8-morpholin-4-yl-6,11-dihydro-5H-pyrido[2,3-b][1,5]benzodiazepine], with 0.069 µM.
Take `CO[C@H]1CC[C@H](C(=O)N2Cc3cccnc3Nc3ccc(N4C[C@H]5CC[C@@H](C4)O5)cc32)CC1` [Example 290, 6-[(trans-4-methoxycyclohexyl)carbonyl]-8-[(1R,5S)-8-oxa-3-azabicyclo[3.2.1]oct-3-yl]-6,11-dihydro-5H-pyrido[2,3-b][1,5]benzodiazepine]: the IC50 was 0.115 µM.
Then `COc1ccc(-c2ccc3c(c2)N(C(=O)[C@H]2CC[C@H](OC)CC2)Cc2cccnc2N3)c(C)n1` [Example 181, 6-[(trans-4-methoxycyclohexyl)carbonyl]-8-(6-methoxy-2-methylpyridin-3-yl)-6,11-dihydro-5H-pyrido[2,3-b][1,5]benzodiazepine], with 0.105 µM.
The value for `CO[C@H]1CC[C@H](C(=O)N2Cc3cccnc3Nc3ccc(-c4cn[nH]c4)cc32)CC1` [Example 357, 6-[(trans-4-methoxycyclohexyl)carbonyl]-8-(1H-pyrazol-4-yl)-6,11-dihydro-5H-pyrido[2,3-b][1,5]benzodiazepine] was 0.107 µM.
The value for `COCC1CCCN(c2ccc3c(c2)N(C(=O)[C@H]2CC[C@H](OC)CC2)Cc2cccnc2N3)C1` (stereo partly drawn) [Example 228, 6-[(trans-4-methoxycyclohexyl)carbonyl]-8-[3-(methoxymethyl)piperidin-1-yl]-6,11-dihydro-5H-pyrido[2,3-b][1,5]benzodiazepine] was 0.618 µM.
Take `O=C([C@H]1CC[C@@H](C2CCOCC2)CC1)N1Cc2cccnc2Nc2ccc(N3CCOCC3)cc21` [Example 130, 8-morpholin-4-yl-6-{[cis-4-(tetrahydro-2H-pyran-4-yl)cyclohexyl]carbonyl}-6,11-dihydro-5H-pyrido[2,3-b][1,5]benzodiazepine]: the IC50 stood at 0.155 µM.
As for `CC(C)O[C@H]1CC[C@H](C(=O)N2Cc3cccnc3Nc3ccc(C4CC(F)CO4)cc32)OC1` (stereo partly drawn) [Example 540, (8-(4-Fluorotetrahydrofuran-2-yl)-5,11-dihydro-6H-benzo[b]pyrido[2,3-e][1,4]diazepin-6-yl)((2R,5S)-5-isopropoxytetrahydro-2H-pyran-2-yl)methanone], the IC50 turned out to be 0.059 µM.
The value for `CO[C@H]1CC[C@@H](C(=O)N2Cc3cccnc3Nc3ccc(N4CCOCC4)cc32)CC1` [Example 53, 6-[(Cis-4-methoxycyclohexyl)carbonyl]-8-morpholin-4-yl-6,11-dihydro-5H-pyrido[2,3-b][1,5]benzodiazepine] was 0.771 µM; that for `O=C([C@H]1CC[C@@H](N2CC(F)(F)C2)CC1)N1Cc2cccnc2Nc2ccc(C3CCOCC3)cc21` [Example 465, 6-{[cis-4-(3,3-difluoroazetidin-1-yl)cyclohexyl]carbonyl}-8-(tetrahydro-2H-pyran-4-yl)-6,11-dihydro-5H-pyrido[2,3-b][1,5]benzodiazepine] was 0.048 µM; that for `CO[C@H]1CC[C@H](C(=O)N2Cc3cccnc3Nc3ccc(N4CCO[C@@H](c5ccccc5)C4)cc32)CC1` [Example 256, 6-[(trans-4-methoxycyclohexyl)carbonyl]-8-[(2S)-2-phenylmorpholin-4-yl]-6,11-dihydro-5H-pyrido[2,3-b][1,5]benzodiazepine] was 0.215 µM.
As for `COC(C)C1CCC(C(=O)N2Cc3cccnc3Nc3ccc(N4CCOCC4)cc32)CC1` (stereo not shown) [Example 87, 6-{[4-(1-methoxyethyl)cyclohexyl]-carbonyl}-8-morpholin-4-yl-6,11-dihydro-5H-pyrido[2,3-b][1,5]benzodiazepine], the IC50 came out at 0.204 µM.
Then `CO[C@H]1CN(c2ccc3c(c2)N(C(=O)[C@H]2CC[C@H](OC)CC2)Cc2cccnc2N3)CC[C@H]1F` (single isomer, unassigned) [Example 216], with 0.332 µM; and `CO[C@H]1CC[C@H](C(=O)N2Cc3cccnc3Nc3ccc(-c4ccncc4)cc32)CC1` [Example 185, 6-[(trans-4-methoxycyclohexyl)carbonyl]-8-pyridin-4-yl-6,11-dihydro-5H-pyrido[2,3-b][1,5]benzodiazepine], with 0.107 µM; and `CCCO[C@H]1CC[C@H](C(=O)N2Cc3cccnc3Nc3ccc(N4C[C@H]5CC[C@@H]4CO5)cc32)CC1` [Example 315, 8-[(1R,4R)-2-oxa-5-azabicyclo[2.2.2]oct-5-yl]-6-[(trans-4-propoxycyclohexyl)carbonyl]-6,11-dihydro-5H-pyrido[2,3-b][1,5]benzodiazepine], with 0.079 µM.
Take `COC1(C)CCC(C(=O)N2Cc3cccnc3Nc3ccc(N4CCOCC4)cc32)CC1` (stereo not shown) [Example 88, 6-[(4-methoxy-4-methylcyclohexyl)carbon-yl]-8-morpholin-4-yl-6,11-dihydro-5H-pyrido[2,3-b][1,5]benzodiazepine]: the IC50 worked out at 0.98 µM.
The value for `CC[C@H](N[C@H]1CC[C@H](C(=O)N2Cc3cccnc3Nc3ccc(N4CCOCC4)cc32)CC1)C(F)(F)F` [Example 449, trans-4-[(8-morpholin-4-yl-5,11-dihydro-6H-pyrido[2,3-b][1,5]benzodiazepin-6-yl)carbonyl]-N-[(1S)-1-(trifluoromethyl)propyl]-cyclohexanamine] was 0.083 µM; that for `CC(C)O[C@H]1CC[C@H](C(=O)N2Cc3cccnc3Nc3ccc([C@H]4COC[C@H]4C)cc32)OC1` (single isomer, unassigned) [Example 536] was 0.035 µM.
Then `COC(C)(C)[C@H]1CC[C@H](C(=O)N2Cc3cccnc3Nc3ccc(N4CCOCC4)cc32)CC1` [Example 89, 6-{[trans-4-(1-methoxy-1-methylethyl)cyclohexyl]-carbonyl}-8-morpholin-4-yl-6,11-dihydro-5H-pyrido[2,3-b][1,5]benzodiazepine], with 0.104 µM; and `CO[C@H]1CC[C@H](C(=O)N2Cc3cccnc3Nc3ccc(N4CCn5cncc5C4)cc32)CC1` [Example 276, 8-(5,6-dihydroimidazo[1,5-a]pyrazin-7(8H)-yl)-6-[(trans-4-methoxycyclohexyl)carbonyl]-6,11-dihydro-5H-pyrido[2,3-b][1,5]benzodiazepine], with 0.819 µM.
The value for `COC1CCC(C(=O)N2Cc3cccnc3Nc3ccc(N4CCC(OC)C(F)C4)cc32)CC1` (stereo not shown) [Example 297, 8-(3-fluoro-4-methoxypiperidin-1-yl)-6-[(4-methoxycyclohexyl)carbonyl]-6,11-dihydro-5H-pyrido[2,3-b][1,5]benzodiazepine] was 0.564 µM; that for `CO[C@H]1CC[C@H](C(=O)N2Cc3cccnc3Nc3ccc(N4CC[C@H](CF)C4)cc32)CC1` [Example 265, 8-[(3S)-3-(fluoromethyl)pyrrolidin-1-yl]-6-[(trans-4-methoxycyclohexyl)carbonyl]-6,11-dihydro-5H-pyrido[2,3-b][1,5]benzodiazepine] was 0.15 µM.
In the case of `CO[C@H]1CC[C@H](C(=O)N2Cc3cccnc3Nc3ccc(C#N)cc32)CC1` [Example 434, 6-[(Trans-4-methoxycyclohexyl)carbonyl]-6,11-dihydro-5H-pyrido[2,3-b][1,5]benzodiazepine-8-carbonitrile], the half-maximal inhibitory concentration (IC50) is 1.39 µM.
For the compound `COC1CCC(C(=O)N2Cc3cccnc3Nc3ccc(N4CCC(OC)C(F)C4)cc32)CC1` (stereo not shown) [Example 209, 8-(3-fluoro-4-methoxypiperidin-1-yl)-6-[(4-methoxycyclohexyl)carbonyl]-6,11-dihydro-5H-pyrido[2,3-b][1,5]benzodiazepine], the IC50 was determined as 0.651 µM.
